Data taken from patent US11427548B2 (Arvinas Operations, Inc., priority 2015, dated 2022).

Sequences of proteins named here, by UniProt entry; tags and fusion partners are left off. A change or cut given only in a name is not applied to a line headed by its entry.
UniProt P10275: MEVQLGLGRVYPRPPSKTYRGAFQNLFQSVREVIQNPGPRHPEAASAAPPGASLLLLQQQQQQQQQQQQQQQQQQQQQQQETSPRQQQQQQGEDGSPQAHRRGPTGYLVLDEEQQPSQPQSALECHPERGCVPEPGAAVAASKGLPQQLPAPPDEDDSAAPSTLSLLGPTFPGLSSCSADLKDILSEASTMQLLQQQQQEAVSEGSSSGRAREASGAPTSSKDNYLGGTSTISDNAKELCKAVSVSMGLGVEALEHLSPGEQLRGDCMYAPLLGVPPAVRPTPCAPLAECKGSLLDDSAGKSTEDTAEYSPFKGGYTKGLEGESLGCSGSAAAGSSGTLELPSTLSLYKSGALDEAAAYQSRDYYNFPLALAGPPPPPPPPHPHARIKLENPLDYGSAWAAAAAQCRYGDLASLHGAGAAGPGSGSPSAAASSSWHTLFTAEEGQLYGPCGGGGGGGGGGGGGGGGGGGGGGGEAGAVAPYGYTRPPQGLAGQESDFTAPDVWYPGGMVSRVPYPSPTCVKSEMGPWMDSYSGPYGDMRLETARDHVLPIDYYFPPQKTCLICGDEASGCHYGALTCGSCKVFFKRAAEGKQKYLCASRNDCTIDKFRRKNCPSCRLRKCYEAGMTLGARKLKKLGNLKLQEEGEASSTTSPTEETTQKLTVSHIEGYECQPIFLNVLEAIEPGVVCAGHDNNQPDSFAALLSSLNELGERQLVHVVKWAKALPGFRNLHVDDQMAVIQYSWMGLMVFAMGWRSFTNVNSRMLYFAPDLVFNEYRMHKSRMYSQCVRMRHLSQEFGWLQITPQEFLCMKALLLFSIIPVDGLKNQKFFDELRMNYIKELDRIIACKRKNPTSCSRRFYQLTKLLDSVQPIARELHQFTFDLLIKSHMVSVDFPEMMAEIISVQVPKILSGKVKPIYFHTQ

Target: T1, Androgen Receptor (Homo sapiens, UniProt P10275)
T1 construct: endogenous in cells; host or cells: VCaP cells
Assay: Androgen Receptor ELISA assay (PathScan AR ELISA) in VCaP cells: AR degradation, Dmax and DC50
Assay type: cell-based
Details: Table 36
Procedure: 1. Androgen Receptor ELISA Assay.
The protocols used with VCaP cells are described below. The androgen receptor ELISA assay was performed using PathScan AR ELISA (Cell Signaling Catalog #12850) according to the following assay steps:
VCaP cells are seeded at 30,000 cells/well at a volume of 200 μL/well in VCaP assay medium [Phenol red free RPMI (Gibco Cat #11835-030); 5% Charcoal Stripped (Dextran treated) FBS (Omega Scientific, Cat #FB-04); Pen/Strep Life Technologies (Gibco Cat #: 10378-016); 0.1 nM R1881 (Sigma, Cat #R0908) is added upon the start of the assay, not during initial plating of the cells) in Corning 3904 plates. The cells are grown for a minimum of 3 days. […]
Add 100 μL/well AR Elisa; cover and shake, 37 C for 2 hrs; dump, tap, wash 4×200 μL ELISA wash buffer; add 100 μL/well mouse AR detection Ab; cover and shake, 37 C for 1 hr; dump, tap, wash 4×200 μL ELISA wash buffer; add 100 μL/well anti-mouse—HRP conjugated Ab (comes with the kit); cover and shake, 37 C for 30 min; allow TMB reagent to come to room temperature; dump, tap, wash 4×200 μL Elisa wash buffer; tap; add 100 μL TMB, shake 5 min—while watching color. […] Add 100 μL Stop solution; shake and read at 450 nm.

N-((1r,3R)-3-(3-chloro- 4-cyanophenoxy)- 2,2,4,4- tetramethylcyclobutyl)- 6-((2S,6R)-4-(2-(2- (((S)-1-((2S,4R)-4- hydroxy-2-(((R)-2- hydroxy-1-(4-(4- methylthiazol-5-yl) phenyl)ethyl) carbamoyl)pyrrolidin- 1-yl)-3,3-dimethyl-1- oxobutan-2-yl)amino)- 2-oxoethoxy)ethyl)- 2,6-dimethylpiperazin- 1-yl)nicotinamide [Example 844]
DC50: < 50 nM
VCaP Dmax (%): ++++ (71% ≤ Dmax)
